Data from ChEMBL document CHEMBL1139156, “Novel naphthyridines are histamine H3 antagonists and serotonin reuptake transporter inhibitors” (Bioorg Med Chem Lett, 2007).

Sequences of proteins named here, by UniProt entry; tags and fusion partners are left off.
UniProt P31652, whole entry: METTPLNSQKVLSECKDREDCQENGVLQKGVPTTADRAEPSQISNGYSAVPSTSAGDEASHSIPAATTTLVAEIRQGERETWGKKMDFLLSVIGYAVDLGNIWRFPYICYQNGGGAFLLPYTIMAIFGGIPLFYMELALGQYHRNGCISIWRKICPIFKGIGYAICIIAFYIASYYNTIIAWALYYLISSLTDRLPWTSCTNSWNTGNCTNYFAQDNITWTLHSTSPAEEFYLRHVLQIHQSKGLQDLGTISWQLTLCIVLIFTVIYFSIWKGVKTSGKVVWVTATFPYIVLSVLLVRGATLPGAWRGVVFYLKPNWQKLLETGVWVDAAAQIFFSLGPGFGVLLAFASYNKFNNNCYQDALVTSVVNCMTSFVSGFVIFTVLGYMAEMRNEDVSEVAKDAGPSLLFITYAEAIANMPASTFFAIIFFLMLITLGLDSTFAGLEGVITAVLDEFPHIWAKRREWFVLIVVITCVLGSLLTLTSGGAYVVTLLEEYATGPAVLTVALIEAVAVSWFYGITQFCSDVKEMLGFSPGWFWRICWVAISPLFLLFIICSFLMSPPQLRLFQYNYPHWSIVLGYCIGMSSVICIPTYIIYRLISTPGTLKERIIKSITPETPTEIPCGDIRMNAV

Target: Sodium-dependent serotonin transporter (Rattus norvegicus, UniProt P31652)
Experiment: Binding affinity to rat SERT

Ki: 2000 nM
Structure (SMILES): c1ccc(C2CNCc3cc(OCCCN4CCOCC4)ncc32)cc1 (stereo unspecified)
